Source: patent US8518443B2, “Opioid agonist formulations with releasable and sequestered antagonist” (Purdue Pharma, L.P., priority 2001, dated 2013)

Format: in vivo
Settings: in comparison to a 15 mg dose of hydrocodone

Question: Which “Equianalgesic dose, Calculated Dose” value does the source give for `CN1CC[C@]23c4c5ccc(O)c4O[C@H]2C(=O)CC[C@H]3[C@H]1C5` [Hydromorphone] here?
Answer: 3.375 mg
